The values below come from ChEMBL document CHEMBL1132230, “1-(1,2,5-Thiadiazol-4-yl)-4-azatricyclo[2.2.1.0(2,6)]heptanes as new potent muscarinic M1 agonists: structure-activity relationship for 3-aryl-2-propyn-1-yloxy and 3-aryl-2-propyn-1-ylthio derivatives” (J Med Chem, 1999).

Amino acid sequences for entries named in this document (tags omitted).
UniProt P08172, whole entry: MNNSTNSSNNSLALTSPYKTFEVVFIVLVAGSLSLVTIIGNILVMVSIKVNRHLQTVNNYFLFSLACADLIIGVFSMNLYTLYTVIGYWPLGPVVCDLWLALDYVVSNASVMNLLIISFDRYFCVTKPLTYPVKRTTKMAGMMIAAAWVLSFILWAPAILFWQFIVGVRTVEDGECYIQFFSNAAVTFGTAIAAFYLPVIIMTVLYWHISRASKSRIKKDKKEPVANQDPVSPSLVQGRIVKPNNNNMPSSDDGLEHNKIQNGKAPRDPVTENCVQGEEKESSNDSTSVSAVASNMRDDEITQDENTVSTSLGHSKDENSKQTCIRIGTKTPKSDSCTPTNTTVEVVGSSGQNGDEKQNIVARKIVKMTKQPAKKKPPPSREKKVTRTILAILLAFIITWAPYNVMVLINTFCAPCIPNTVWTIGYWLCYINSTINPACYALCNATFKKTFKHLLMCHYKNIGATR

pEC50: −log10 of the molar value.

The experiment has as its target Muscarinic acetylcholine receptor M2 (Homo sapiens, UniProt P08172). The experiment is described as follows: Compound was tested for its potency towards Muscarinic acetylcholine receptor M2 by inhibiting forskolin induced c-AMP formation in CHO-M2 cells. The format is functional, cell-based. Put shortly: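 Human M2 receptor plasmid transfected into CHO cells […], cultured in DMEM/10% FBS with 1 μM atropine and 1 μM methotrexate; atropine-free medium overnight before assay. Cells detached with PBS + 1 mM EDTA, washed into DMEM + 20 mM HEPES pH 7.4 + 0.5 mM IBMX, preincubated 30 min at 0 °C. Forskolin 10 μM final, 10 min at 37 °C; ethanol stop; cAMP by radioimmunoassay.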

For the molecule `CCCCCCOc1nsnc1C1=CCCN(C)C1` [XANOMELINE], the pEC50 – broadly, −log10 of the EC50, conventionally taken in molar units – is 6.40.
